Data published in ChEMBL document CHEMBL6182939, “Searching for Synthetic Opioid Rescue Agents. 2: Identification of an Ultra-Potent Synthetic Opioid Rescue Agent” (J Med Chem, 2025).

By UniProt entry, the sequences of proteins in these tests, tags left out. Where a name states a change or a piece, a line headed by the entry shows the natural chain unless it says otherwise.
UniProt P41145: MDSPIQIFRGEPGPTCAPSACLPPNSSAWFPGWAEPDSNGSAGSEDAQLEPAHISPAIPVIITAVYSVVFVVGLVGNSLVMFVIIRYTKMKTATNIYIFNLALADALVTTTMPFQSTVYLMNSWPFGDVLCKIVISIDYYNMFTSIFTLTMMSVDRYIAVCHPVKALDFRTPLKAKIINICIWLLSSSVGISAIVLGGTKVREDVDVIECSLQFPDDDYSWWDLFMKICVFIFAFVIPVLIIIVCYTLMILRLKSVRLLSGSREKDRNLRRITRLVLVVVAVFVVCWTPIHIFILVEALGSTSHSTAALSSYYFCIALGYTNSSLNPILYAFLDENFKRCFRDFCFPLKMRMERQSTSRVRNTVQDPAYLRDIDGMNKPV
UniProt P41143, whole entry: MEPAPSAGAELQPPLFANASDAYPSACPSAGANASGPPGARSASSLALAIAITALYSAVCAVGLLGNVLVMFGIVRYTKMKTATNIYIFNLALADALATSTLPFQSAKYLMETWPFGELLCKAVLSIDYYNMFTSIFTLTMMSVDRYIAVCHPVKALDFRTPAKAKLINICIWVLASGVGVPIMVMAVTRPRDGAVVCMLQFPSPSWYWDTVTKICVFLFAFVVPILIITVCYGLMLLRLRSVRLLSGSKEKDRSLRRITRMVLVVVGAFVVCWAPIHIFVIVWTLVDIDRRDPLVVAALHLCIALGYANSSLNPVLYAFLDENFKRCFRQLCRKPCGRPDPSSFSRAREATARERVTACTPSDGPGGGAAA

Columns and labels:
[1] = target: Kappa-type opioid receptor (Homo sapiens, UniProt P41145)
[2] = target: T1, Delta-type opioid receptor (Homo sapiens, UniProt P41143)
[3] = target: T1, Delta-type opioid receptor; assay: Antagonist activity against human DOR expressed in CHO-K1 cells assessed as maximal inhibition of forskolin-induced cAMP accumulation pretreated for 15 mins followed by forskolin addition measured after 30 mins by HitHunter cAMP assay normalized to naltrexone; assay type: functional, cell-based; settings: filed as antagonist, time 45.0 min

| SMILES | IC50 [1] [nM] | IC50 [2] [nM] | Imax [3] [%] |
| --- | --- | --- | --- |
| NC(=O)c1ccc(Oc2ccc(CNCCc3ccccc3)cc2)nc1 | 10 | – | – |
| NC(=O)c1ccc(Oc2ccc(CNCCc3ccccc3)cc2)cc1 | – | 3.16 | 190 |
| C=C1CC[C@@]2(O)[C@H]3Cc4ccc(O)c5c4[C@@]2(CCN3CC2CC2)[C@H]1O5 | – | 126 | 90.5 |
